Only a part is listed here, and it is no random draw. Results filed as inconclusive are left out. Active and inactive are the calls of the source. No stated cut-off is given here; in the data, active means max dye-equivalent concentration above about 10 nM; inconclusive means mostly about 1.1 nM to 9.6 nM; inactive means weaker than that.
Test: qHTS Assay for Spectroscopic Profiling in 4-MU Spectral Region
Conditions: compound autofluorescence, 340/450 nm, 4-MU equivalents
Source text: NIH Molecular Libraries Screening Centers Network [MLSCN] NIH Chemical Genomics Center [NCGC] […] Occasionally, the artifactual effect may originate from the compounds own spectral or other biophysical properties which generally tend to track its assay concentration. Pre-screening/profiling the library with respect to the compounds spectral properties should help one exclude false positives early on. While the most informative fluorescent profiling data set is obtained by performing a full excitation and emission scan of each well by using a monochromator-based plate reader, such an approach is practical only on a very limited scale as scanning each well requires long time. An alternative approach, applied here, is to perform plate reader scans using selected excitation and emission wavelength pairs to generate a multidimensional relational database that correlates compound concentration and the respective relative fluorescence intensity at a given wavelength set. A standard curve of 4-methylumbelliferone (4-MU) present on each plate as six-point concentration series, was used to compute a normalized fluorescence response, termed dye-equivalent concentration, for each compound at each concentration.
NCGC Assay Protocol Summary: Buffer: 100 mM Tris buffer, pH 8.0 Dye standard plate: The wells in columns 1 through 4 of a Kalypsys polypropylene 1536-well compound plate were filled with standard solutions of fluorophore corresponding to the spectral region of interest. Solutions of 4-MU were placed in the following wells: A1, B1: 3 mM, A2, B2: 300 uM, A3, B3: 30 uM, A4, B4: zero (DMSO), C1, D1: 3 uM, C2, D2: 900 nM, C3, D3: 300 nM, C4, D4: zero (DMSO). Assay Steps: Six uL of buffer were dispensed to 1536-well Greiner black plates. Compounds and dye standards (23 nL) were transferred via Kalypsys PinTool. The plates were incubated for 15 min at room temperature, and then read on ViewLux (Perkin-Elmer) High-throughput CCD imager using 340 nm and 450 nm excitation and emission filter set. Keywords: NIH Roadmap, MLSCN, MLI, MLSMR, qHTS, NCGC, Fluorescent Profiling, 4MU, 4-MU

Structure (SMILES)	outcome
CCOc1ncccc1C(=O)NCC1(N2CCOCC2)CCCCC1	inactive
O=C(O)C1(Nc2ccccc2)CCN(Cc2ccccc2)CC1	inactive
CCC(CO)(C(=O)OC1CN2CCC1CC2)c1ccccc1 (stereo unspecified)	inactive
N/C(=N\O)c1c(N)no[n+]1[O-]	inactive
N#CC1(Nc2ccccc2)CCN(CCc2ccccc2)CC1	inactive
O=C(OC1CN2CCC1CC2)C1c2ccccc2Oc2ccccc21 (stereo unspecified)	inactive

Reference: PubChem BioAssay AID589 (National Center for Advancing Translational Sciences (NCATS), 2007)
